Key:
[1] = target: Nociceptin receptor (Homo sapiens, UniProt P41146); test: Displacement of [125I]-Tyr14-nociceptin from human ORL1 expressed in HEK293 cells after 2 hrs by scintillation counting
[2] = target: Mu-type opioid receptor (Homo sapiens, UniProt P35372); test: Displacement of [3H]DAMGO from human Mu opioid receptor expressed in HEK293 cells after 2 hrs by scintillation counting

| SMILES | IC50 [1] | IC50 [2] |
| --- | --- | --- |
| COc1ccc(CCNC[C@@H](O)CN2CN(c3ccccc3)C3(CCN(CCc4ccccc4-c4cccs4)CC3)C2=O)cc1OC | 3.9 nM | 79 nM |
| COc1ccc(CCOC[C@H](O)CN2CN(c3ccc(F)cc3)C3(CCN(CC4CCCCCCC4)CC3)C2=O)cc1OC |  | 2600 nM |
| O=C1N(C[C@H](O)CNCc2cccs2)CN(c2ccccc2)C12CCN(CCc1ccccc1-c1cccs1)CC2 | 8 nM | 80 nM |
| O=C1N(C[C@@H](O)CNCc2cccs2)CN(c2ccccc2)C12CCN(CCc1ccccc1-c1cccs1)CC2 | 160 nM | 29 nM |
| Cc1ccccc1CNC[C@H](O)CN1CN(c2ccccc2)C2(CCN(CCc3ccccc3-c3cccs3)CC2)C1=O |  | 69 nM |
| Cc1ccc(CN(C[C@H](O)CN2CN(c3ccc(F)cc3)C3(CCN(CC4CCCCCCC4)CC3)C2=O)C(=O)[C@H](N)C(C)C)cc1 | 18 nM |  |
| COc1ccc(CNC[C@@H](O)CN2CN(c3ccccc3)C3(CCN(CCc4ccccc4-c4cccs4)CC3)C2=O)cc1 |  | 110 nM |
| Cc1ccccc1CNC[C@@H](O)CN1CN(c2ccccc2)C2(CCN(CCc3ccccc3-c3cccs3)CC2)C1=O |  | 103 nM |

Reference: ChEMBL document CHEMBL3393026, “A selective small molecule NOP (ORL-1 receptor) partial agonist for the treatment of anxiety” (Bioorg Med Chem Lett, 2015)
